These results are taken from ChEMBL document CHEMBL1146967, “The geminal dimethyl analogue of Flurbiprofen as a novel Abeta42 inhibitor and potential Alzheimer's disease modifying agent” (Bioorg Med Chem Lett, 2006).

Chains of the proteins cited; added tags and fusions are not shown.
UniProt P23219, whole entry: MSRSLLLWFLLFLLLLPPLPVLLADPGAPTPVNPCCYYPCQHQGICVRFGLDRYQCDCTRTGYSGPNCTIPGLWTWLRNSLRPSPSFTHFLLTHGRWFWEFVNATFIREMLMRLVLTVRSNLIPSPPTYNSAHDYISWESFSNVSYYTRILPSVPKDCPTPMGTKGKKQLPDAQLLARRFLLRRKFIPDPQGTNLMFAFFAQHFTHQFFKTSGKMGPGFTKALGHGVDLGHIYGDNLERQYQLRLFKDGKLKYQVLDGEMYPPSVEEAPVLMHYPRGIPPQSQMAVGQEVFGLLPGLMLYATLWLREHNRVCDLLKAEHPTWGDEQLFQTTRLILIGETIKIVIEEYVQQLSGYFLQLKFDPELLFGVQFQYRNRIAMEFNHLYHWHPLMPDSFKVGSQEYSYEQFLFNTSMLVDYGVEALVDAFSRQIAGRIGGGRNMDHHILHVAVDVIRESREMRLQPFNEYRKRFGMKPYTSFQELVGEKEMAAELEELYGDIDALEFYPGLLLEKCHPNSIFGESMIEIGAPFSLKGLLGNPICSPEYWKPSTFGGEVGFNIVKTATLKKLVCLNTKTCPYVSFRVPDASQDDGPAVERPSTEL

The structures appear in SMILES notation.

The target of this assay is Prostaglandin G/H synthase 1 (Homo sapiens, UniProt P23219). Description: Inhibition of COX1 in human whole blood. The class given is functional, tissue-based.

As for `C[C@H](C(=O)O)c1ccc(-c2ccccc2)c(F)c1` [ESFLURBIPROFEN], the IC50 was 2 µM.
As for `C[C@@H](C(=O)O)c1ccc(-c2ccccc2)c(F)c1` [TARENFLURBIL], the figure is 44 µM.

One may read the IC50 as the concentration that gives 50% inhibition. Low readings indicate greater potency in that assay, high ones weaker potency in that assay.
